The series is classed as physicochemical. An excerpt:
Also, while in the preferred embodiment, povidone iodine constitutes about Wt. % 10, preferably 10-11% of the total of the buffered stock and alcoholic solutions prior to their combination, the relative amounts of the two solutions to be combined can be adjusted to provide povidone iodine at from about Wt. % 2-10% of the total of the two solutions prior to their combination. Similarly, adjusting the amount of povidone iodine in the stock solution before combining it with the selected alcoholic solution can produce the same ratios of povidone iodine. Such adjustments would also change the relative amounts of the other ingredients present in the solutions. It may also be possible to exclude or adjust the amount of one or more of the citric acid, sodium phosphate dibasic, sodium hydroxide, glycerin, nonoxynol-9, or MAKON 8 in the stock solution and still produce an effective topical composition. However, the specific ratio of active ingredients is particularly important, specifically with respect to the benzalkonium chloride which should not be blended at a higher concentration due to solubility issues. Based on laboratory experimentation, solutions formed as described in Example 1 below with greater than 0.13% Benzalkonium Chloride cause the ingredient to “crash out” and render the solution useless. […]

In the case of Benzalkonium Chloride, the “Benzalkonium Chloride concentration at which the ingredient crashes out of solution” value was “greater than 0.13%” and the “Benzalkonium chloride concentration at which it loses solubility in solution” value is “above 0.13%”.

The record behind these values is patent US9155709B1, “Buffered hydroalcoholic povidone iodine composition and method” (priority 2014, dated 2015).
